From ChEMBL document CHEMBL5376013, “Design, synthesis and biological evaluation of novel morpholinopyrimidine-5-carbonitrile derivatives as dual PI3K/mTOR inhibitors” (RSC Med Chem, 2024) come the findings set out here.

Protein sequences, listed by entry. Tags and fused reporters are not part of them. Lines headed by an entry give the natural chain unless they say otherwise; changes in a name come on top.
UniProt P42338: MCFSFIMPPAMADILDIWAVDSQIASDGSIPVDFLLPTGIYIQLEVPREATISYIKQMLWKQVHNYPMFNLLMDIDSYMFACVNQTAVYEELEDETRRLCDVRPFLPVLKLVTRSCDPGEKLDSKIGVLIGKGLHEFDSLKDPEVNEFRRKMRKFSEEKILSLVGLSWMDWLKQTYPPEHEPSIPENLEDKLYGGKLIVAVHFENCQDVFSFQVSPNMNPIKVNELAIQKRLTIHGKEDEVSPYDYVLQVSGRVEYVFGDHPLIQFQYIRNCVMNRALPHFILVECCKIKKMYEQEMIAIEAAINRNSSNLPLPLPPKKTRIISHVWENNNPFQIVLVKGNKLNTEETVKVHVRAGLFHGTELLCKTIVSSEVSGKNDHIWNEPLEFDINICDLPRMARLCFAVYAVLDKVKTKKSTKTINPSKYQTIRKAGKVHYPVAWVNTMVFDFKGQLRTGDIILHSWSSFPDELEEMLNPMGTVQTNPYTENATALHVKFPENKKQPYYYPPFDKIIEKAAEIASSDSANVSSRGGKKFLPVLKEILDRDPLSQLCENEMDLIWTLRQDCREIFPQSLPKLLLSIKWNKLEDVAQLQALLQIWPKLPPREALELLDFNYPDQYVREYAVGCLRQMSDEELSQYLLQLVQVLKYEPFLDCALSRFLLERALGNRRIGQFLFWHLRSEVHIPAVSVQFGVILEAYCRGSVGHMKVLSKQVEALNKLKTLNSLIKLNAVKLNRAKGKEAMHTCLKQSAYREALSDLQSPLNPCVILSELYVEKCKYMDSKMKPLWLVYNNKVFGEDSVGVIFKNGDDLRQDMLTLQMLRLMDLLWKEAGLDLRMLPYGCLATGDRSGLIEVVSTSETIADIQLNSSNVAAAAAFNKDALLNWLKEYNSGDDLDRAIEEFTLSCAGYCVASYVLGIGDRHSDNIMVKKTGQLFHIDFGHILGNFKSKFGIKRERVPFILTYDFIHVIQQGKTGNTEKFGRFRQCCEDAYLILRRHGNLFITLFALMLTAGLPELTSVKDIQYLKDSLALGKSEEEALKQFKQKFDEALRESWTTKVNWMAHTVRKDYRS

The target of the experiment is Phosphatidylinositol 4,5-bisphosphate 3-kinase catalytic subunit beta isoform (Homo sapiens, UniProt P42338). Description: Inhibition of PI3Kbeta (unknown origin).

Molecule `O=c1cc(N2CCOCC2)oc2c(-c3ccccc3)cccc12` [LY-294002] registered a concentration for half-maximal inhibition (IC50) of 5.43 µM.
